These results are taken from patent publication US10933063B2 (priority 2017, dated 2021).

Amino acid sequences for entries named in this document (tags omitted). A change or cut given only in a name is not applied to a line headed by its entry.
UniProt Q06187, whole entry, looked up, species assumed: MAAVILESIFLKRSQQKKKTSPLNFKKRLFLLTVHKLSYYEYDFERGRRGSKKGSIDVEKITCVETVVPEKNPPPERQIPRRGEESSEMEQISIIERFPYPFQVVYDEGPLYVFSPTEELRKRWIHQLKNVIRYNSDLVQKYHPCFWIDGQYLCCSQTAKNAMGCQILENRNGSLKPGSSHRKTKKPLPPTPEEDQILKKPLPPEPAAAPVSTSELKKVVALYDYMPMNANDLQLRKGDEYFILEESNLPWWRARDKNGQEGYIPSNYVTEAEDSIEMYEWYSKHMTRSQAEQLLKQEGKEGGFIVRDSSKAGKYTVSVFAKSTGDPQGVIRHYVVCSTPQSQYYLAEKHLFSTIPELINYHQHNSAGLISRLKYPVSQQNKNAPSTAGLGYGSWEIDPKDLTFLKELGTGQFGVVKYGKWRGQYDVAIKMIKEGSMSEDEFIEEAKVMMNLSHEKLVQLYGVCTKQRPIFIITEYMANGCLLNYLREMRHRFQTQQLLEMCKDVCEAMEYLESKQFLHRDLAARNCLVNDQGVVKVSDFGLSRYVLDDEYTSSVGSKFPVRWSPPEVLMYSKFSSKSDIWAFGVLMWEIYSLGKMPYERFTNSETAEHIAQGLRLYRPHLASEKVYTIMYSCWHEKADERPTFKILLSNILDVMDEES
UniProt P42680: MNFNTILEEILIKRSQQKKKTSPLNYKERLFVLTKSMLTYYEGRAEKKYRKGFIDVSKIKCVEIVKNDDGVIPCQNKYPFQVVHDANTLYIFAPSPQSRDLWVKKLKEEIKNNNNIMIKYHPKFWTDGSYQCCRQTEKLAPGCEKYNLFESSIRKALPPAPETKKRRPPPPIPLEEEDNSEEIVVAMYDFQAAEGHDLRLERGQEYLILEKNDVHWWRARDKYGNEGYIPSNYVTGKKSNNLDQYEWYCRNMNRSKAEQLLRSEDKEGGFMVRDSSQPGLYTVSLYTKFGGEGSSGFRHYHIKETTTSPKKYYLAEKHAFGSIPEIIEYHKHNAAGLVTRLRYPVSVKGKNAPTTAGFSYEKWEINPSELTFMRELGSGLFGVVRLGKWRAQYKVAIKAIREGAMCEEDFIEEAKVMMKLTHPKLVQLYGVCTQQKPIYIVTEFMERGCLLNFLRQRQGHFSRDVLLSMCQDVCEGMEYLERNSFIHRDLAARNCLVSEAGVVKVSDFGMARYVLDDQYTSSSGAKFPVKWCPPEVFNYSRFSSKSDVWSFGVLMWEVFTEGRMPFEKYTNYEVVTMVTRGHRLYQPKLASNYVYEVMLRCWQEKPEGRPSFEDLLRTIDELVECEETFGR
UniProt P07948, whole entry, looked up, species assumed: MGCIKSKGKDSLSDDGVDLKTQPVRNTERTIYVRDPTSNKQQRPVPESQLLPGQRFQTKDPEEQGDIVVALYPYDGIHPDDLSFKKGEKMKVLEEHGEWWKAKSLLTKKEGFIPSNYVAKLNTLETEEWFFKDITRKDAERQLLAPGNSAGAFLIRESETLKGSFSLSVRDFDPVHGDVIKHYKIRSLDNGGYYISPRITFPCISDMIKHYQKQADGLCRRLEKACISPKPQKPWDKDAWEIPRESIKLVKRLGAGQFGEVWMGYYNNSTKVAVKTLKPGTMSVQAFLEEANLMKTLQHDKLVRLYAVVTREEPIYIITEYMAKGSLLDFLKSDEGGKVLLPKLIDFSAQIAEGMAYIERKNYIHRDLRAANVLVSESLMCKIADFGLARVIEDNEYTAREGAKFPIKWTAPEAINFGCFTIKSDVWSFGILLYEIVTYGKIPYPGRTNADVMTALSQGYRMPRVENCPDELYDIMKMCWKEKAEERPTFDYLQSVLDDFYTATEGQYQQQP
UniProt Q08881, whole entry, looked up, species assumed: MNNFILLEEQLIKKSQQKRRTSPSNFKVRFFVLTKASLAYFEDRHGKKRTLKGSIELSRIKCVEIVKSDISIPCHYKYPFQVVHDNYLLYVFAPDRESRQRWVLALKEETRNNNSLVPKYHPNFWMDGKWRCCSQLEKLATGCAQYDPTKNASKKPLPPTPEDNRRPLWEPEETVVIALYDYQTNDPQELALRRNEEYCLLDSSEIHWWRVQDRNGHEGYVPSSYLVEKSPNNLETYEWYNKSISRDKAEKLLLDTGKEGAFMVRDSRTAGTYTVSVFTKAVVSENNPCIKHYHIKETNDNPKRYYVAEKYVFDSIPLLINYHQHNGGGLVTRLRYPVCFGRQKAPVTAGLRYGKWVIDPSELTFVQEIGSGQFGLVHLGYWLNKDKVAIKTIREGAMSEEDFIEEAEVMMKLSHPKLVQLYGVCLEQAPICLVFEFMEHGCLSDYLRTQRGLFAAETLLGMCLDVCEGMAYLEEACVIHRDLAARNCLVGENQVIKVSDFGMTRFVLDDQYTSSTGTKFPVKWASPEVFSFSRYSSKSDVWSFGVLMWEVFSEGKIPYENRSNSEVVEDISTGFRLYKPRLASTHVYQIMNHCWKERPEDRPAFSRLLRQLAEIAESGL
UniProt P06239, whole entry, looked up, species assumed: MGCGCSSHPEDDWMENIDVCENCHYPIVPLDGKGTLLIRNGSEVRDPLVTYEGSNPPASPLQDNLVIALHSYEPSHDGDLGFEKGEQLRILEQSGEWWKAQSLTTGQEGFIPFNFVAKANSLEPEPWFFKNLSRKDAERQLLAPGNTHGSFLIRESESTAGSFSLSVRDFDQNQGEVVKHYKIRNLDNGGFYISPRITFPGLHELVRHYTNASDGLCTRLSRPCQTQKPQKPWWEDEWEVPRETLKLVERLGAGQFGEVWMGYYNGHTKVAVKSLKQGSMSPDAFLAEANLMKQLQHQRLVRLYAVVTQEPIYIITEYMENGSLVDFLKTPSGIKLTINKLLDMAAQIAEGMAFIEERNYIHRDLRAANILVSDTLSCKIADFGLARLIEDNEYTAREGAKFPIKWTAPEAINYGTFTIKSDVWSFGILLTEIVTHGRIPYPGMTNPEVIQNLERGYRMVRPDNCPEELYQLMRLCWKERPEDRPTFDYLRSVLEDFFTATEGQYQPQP

For test [1], the target named is T1, BTK (Homo sapiens (Human), UniProt Q06187). The test can be described thus: biochemical.
The next test has as its target TEC (Homo sapiens (Human), UniProt P42680). The test can be described thus: biochemical.
The target in another test is LYN (Homo sapiens (Human), UniProt P07948). Briefly: biochemical.
The next test has as its target ITK (Homo sapiens (Human), UniProt Q08881). The test can be described thus: biochemical.
For the next test, the target named is LCK (Homo sapiens (Human), UniProt P06239). Briefly: biochemical.
Test [2] deals with T1, BTK. To be noted: read-out: BTK IC50.

Read-outs that look alike come from different tables or passages of the source.

Usually IC50 stands for the point on the concentration scale where inhibition reaches its midpoint. Regarding `COc1cccc(Oc2ccc(-c3nc(C4CCC5CCN(C)C(=O)N5C4)n4ccncc34)cc2)c1F` (centres unmarked) [Example 214, 7-(1-(4-(2-fluoro-3-methoxyphenoxy)phenyl)imidazo[1,5-a]pyrazin-3-yl)-2-methyloctahydro-1H-pyrido[1,2-c]pyrimidin-1-one], the IC50 against BTK [1] lay within 100 to 1000 nM.

Regarding `CC#CC(=O)N1CCCC[C@H]1c1nc(-c2ccc(Oc3cccc(OC)c3F)cc2)c2c(C)nccn12` [Example 5, (S)-1-(2-(1-(4-(2-Fluoro-3-methoxyphenoxy)phenyl)-8-methylimidazo[1,5-a]pyrazin-3-yl)piperidin-1-yl)but-2-yn-1-one], the IC50 against TEC is 100 to 1000 nM; against LYN, greater than 10000 nM; on ITK, greater than 10000 nM; against LCK it was greater than 10000 nM; on BTK [2], 10 to 100 nM; at BTK [1] it was 10 to 100 nM.

As for `C=CC(=O)N1CCCC[C@H]1c1nc(-c2ccc(Oc3cccc(OC)c3F)cc2)c2cnccn12` [Example 6, (S)-1-(2-(1-(4-(2-Fluoro-3-methoxyphenoxy)phenyl)imidazo[1,5-a]pyrazin-3-yl)piperidin-1-yl)prop-2-en-1-one], the IC50 on BTK [1] is less than 10 nM.
